According to ChEMBL document CHEMBL5726314, “JAK inhibitors containing a 4-membered heterocyclic amide” (2019):

Target: T1, Tyrosine-protein kinase JAK3 (Homo sapiens, UniProt P52333)
T1 sequence (P52333 whole entry): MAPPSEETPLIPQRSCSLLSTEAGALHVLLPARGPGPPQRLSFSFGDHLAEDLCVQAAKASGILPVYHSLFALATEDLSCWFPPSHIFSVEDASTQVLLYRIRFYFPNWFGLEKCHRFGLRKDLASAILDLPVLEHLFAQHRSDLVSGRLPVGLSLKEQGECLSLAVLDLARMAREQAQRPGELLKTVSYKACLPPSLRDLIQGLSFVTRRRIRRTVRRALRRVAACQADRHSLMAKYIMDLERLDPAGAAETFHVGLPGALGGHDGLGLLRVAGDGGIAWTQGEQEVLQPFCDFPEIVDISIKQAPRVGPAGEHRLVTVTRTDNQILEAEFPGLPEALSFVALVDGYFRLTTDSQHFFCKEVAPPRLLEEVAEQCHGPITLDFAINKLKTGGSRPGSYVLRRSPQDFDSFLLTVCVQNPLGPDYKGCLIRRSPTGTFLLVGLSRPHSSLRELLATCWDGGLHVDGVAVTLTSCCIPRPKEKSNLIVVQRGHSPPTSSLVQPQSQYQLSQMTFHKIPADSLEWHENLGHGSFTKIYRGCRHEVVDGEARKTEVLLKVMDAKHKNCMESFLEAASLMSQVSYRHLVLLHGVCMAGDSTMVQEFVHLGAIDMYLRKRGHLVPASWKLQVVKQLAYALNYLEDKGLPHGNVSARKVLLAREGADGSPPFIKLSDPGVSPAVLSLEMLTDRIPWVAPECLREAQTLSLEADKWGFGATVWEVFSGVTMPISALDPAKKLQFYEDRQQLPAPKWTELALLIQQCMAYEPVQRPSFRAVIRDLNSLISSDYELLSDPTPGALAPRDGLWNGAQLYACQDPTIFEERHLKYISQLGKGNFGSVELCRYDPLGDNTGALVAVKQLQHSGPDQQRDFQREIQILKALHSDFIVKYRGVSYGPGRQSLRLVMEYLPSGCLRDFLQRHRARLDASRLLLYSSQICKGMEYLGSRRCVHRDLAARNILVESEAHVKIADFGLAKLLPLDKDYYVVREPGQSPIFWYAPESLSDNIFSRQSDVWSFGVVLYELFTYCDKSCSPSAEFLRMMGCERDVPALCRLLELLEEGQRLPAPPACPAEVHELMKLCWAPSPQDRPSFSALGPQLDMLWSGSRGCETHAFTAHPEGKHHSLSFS
Test: Biochemical JAK Kinase Assays: A panel of four LanthaScreen JAK biochemical assays (JAK1, 2, 3 and Tyk2) were carried in a common kinase reaction buffer (50 mM HEPES, pH 7.5, 0.01% Brij-35, 10 mM MgCl2, and 1 mM EGTA). Recombinant GST-tagged JAK enzymes and a GFP-tagged STAT1 peptide substrate were obtained from Life Technologies.Serially diluted compounds were pre-incubated with each of the four JAK enzymes and the substrate in white 384-well microplates (Corning) at ambient temperature for 1 h. ATP was subsequently added to initiate the kinase reactions in 10 μL total volume, with 1% DMSO. […] Kinase reactions were allowed to proceed for 1 hour at ambient temperature before a 10 μL preparation of EDTA (10 mM final concentration) and Tb-anti-pSTAT1 (pTyr701) antibody (Life Technologies, 2 nM final concentration) in TR-FRET dilution buffer (Life Technologies) was added. The plates were allowed to incubate at ambient temperature for 1 h before being read on the EnVision reader (Perkin Elmer).

## CCCN1Cc2[nH]c(-c3n[nH]c4cc(-c5cc(F)c(O)cc5CC)ccc34)nc2C[C@@H]1C(=O)N1CC(C)(N(C)C)C1
  Ki: 0.25 nM (2×) and 0.4 nM

“And” between values parts separate entries of the source, which are not always exact repeats. Equal values may be shown once.
